## Measured affinities in a library of Ab-91 heavy chain variants

Binding partner: SARS-CoV-2 spike HR2 peptide, sequence PDVDLGDISGINAS.

The variants keep the light chain, the linker and the frameworks of Ab-91 (scFv order VL, three GGGGS repeats, VH).
VL: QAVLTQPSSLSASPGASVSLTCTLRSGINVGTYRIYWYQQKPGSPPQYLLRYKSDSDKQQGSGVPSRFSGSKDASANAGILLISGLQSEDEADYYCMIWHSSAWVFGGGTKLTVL
VH: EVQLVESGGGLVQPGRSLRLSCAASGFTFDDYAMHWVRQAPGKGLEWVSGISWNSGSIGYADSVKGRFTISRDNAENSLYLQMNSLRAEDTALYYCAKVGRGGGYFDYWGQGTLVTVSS

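The starting antibody came from a phage panning campaign against this peptide. AAYL51 was designed without a model: most single CDR substitutions and a random sample of double and triple ones. The scFvs were displayed on barcoded MATa yeast, the peptide on MATalpha yeast. Binding brings cells together so that they mate, and sequencing counts the barcode pairs among the diploids. Scores were corrected for input abundance and mapped to Kd with protein pairs of known affinity run in the same pool. Each pool was mated in three replicate cultures.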

The parent's heavy chain CDRs are GFTFDDYAMH, GISWNSGSIGYADSVK, VGRGGGYFDY; each variant's own CDRs replace them letter for letter. Values are log10 of the apparent Kd in nM; lower means stronger binding. "ND" means that the variant was in the library but no mating with the target was seen in that replicate; the authors take this as a sign of poor binding, and no number exists. As a blank, each scFv also met three strains without target: over library AAYL51, 21% of these pairings were detected, typically at 4.54 and seldom below 3.26. For each scFv, signals with the empty controls are counted beside the result, with their mean in brackets.

CDR-H1	CDR-H2	CDR-H3	log10 Kd, replicates	signal with controls
GFTDDDYAMH	GIAWNSGSIGGADSVK	VGRGGGYFDY	ND / ND / ND	1 of 9 (3.91)
GFTFDDYAMN	GISWNSGSIGYWDSDK	VGRGGGYFDY	ND / ND / ND	0 of 9
GFTFDDYAMH	GISWNSGSIGYGDSIK	VGRGGGQFDY	3.87 / 5.30 / 3.11	1 of 9 (4.07)
GFTFDDYAMH	GIHWNSGSIGLADSVK	VGRSGGYFDY	5.05 / ND / ND	2 of 9 (3.61)
CFTFDDYAMH	GISWNSGSIGKADSVK	VGRGGGYADY	ND / ND / ND	1 of 9 (3.48)
GFTFDDYAME	GISWNSGSIGYGDSVK	VGRGGGYVDY	4.49 / 5.29 / ND	6 of 9 (4.88)
GFTFAEYAMH	GISWNNGSIGYADSVK	VGRGGGYFDY	2.79 / 2.76 / 2.65	3 of 9 (5.03)
GFTFMDYAMH	GIRKNSGSIGYADSVK	VGRGGGYFDY	4.71 / 5.91 / ND	3 of 9 (4.41)
GFTFDDYAMH	GIHWNSGNIGYADSVK	VGRGGEYFDY	ND / ND / ND	0 of 9
GFTADDYAMH	GISWNQGSIGYADSVK	VGRGGCYFDY	4.53 / 5.12 / ND	9 of 9 (5.32)
GFQFDDYAMH	GISGNSGSIGYADCVK	VGRGGGYFDY	1.55 / 1.57 / 1.19	0 of 9
GFTFDDYAMH	GISWNSGSIGYADSVM	RGYGGGYFDY	ND / ND / ND	0 of 9
GFTFDDYAMH	GISWNSGSIGYAFSVK	VGRGYGYFDA	ND / ND / ND	1 of 9 (3.55)
GFTFDDYATH	GISWNQGSIGYSDSVK	VGRGGGYFDY	4.93 / ND / 4.43	3 of 9 (4.60)
GFTFDDYAMH	GISWNSGSIPYADSVK	AGRGGGYKDY	ND / ND / ND	0 of 9
WFTFDDYAMH	GISWNSGSIGYMDSDK	VGRGGGYFDY	ND / ND / ND	1 of 9 (4.82)
GHSFDDFAMH	GISWNSGSIGYADSVK	VGRGGGYFDY	3.14 / 2.80 / 2.92	5 of 9 (4.26)
GFTFDDYAMH	GKSWNSGSIGYADSVK	VGRGGGYFDY	ND / ND / 4.64	3 of 9 (4.52)
GFTFDDYAMH	GISQNSGSIGYMDSVK	VGRGGGYFRY	ND / ND / ND	3 of 9 (4.15)
GFTFDDYAMH	GISWNSSYIGYADSVK	VGRGGGYFDY	2.32 / 2.13 / 2.26	3 of 9 (4.67)
GFTDVDYAMH	GISWNSGSIGYADSVK	VGRGWGYFDY	ND / ND / ND	0 of 9
GFTNDDYAMH	GISWNSGSIGYDDSVK	VGRKGGYFDY	4.02 / ND / ND	0 of 9
DFTFDDYAMH	GISWNSSSIGYADSVK	VPRGGGYFDY	ND / ND / 3.54	0 of 9
GFTFDDYAMP	GISWNSGSIGYADSVK	VGRGGGYFDY	5.38 / ND / ND	5 of 9 (5.21)
GFTTDDYAMH	GISWNEGSIGYADSVK	VGRGGYYFDY	ND / ND / ND	4 of 9 (3.54)
GFTFDDYAMH	GISWNSGSIGYANSAK	VGAGGGYFDY	3.92 / 6.38 / ND	3 of 9 (4.42)
GFTFDDYAAH	GISWNSGSIGYADSVK	VPRPGGYFDY	ND / ND / 3.95	0 of 9
GFTFDDYAMH	GISWNSGSEGYLDSVK	VGTGGGYFDY	5.29 / ND / ND	1 of 9 (4.27)
GFTFDDYALH	GISWNSGSIGYADSVK	QGRGLGYFDY	ND / ND / ND	0 of 9
GFTFDDYAMH	GIHNNQGSIGYADSVK	VGRGGGYFDY	6.01 / 3.98 / ND	4 of 9 (5.01)
GFTFDDYAMH	GISWNSGSRGYADSVK	VGKGGYYFDY	2.27 / 2.25 / 2.65	0 of 9

For reference, 2 entries of the list once more:

| CDR-H1 | CDR-H2 | CDR-H3 | log10 Kd, replicates | signal with controls |
|---|---|---|---|---|
| GFTADDYAMH | GISWNQGSIGYADSVK | VGRGGCYFDY | 4.53 / 5.12 / ND | 9 of 9 (5.32) |
| GFTFDDYAMN | GISWNSGSIGYWDSDK | VGRGGGYFDY | ND / ND / ND | 0 of 9 |

Reference: Engelhart et al. 2022, doi:10.1038/s41597-022-01779-4. File: FLAb, binding data.